In patent US8748130B2, “Human papillomavirus / Ii-Key hybrids and methods of use” (priority 2008, dated 2014):

System: HLA-DR4 molecules
Test: Binding of HA-tagged HPV peptides to HLA-DR4+ H9 cells (flow cytometry, anti-HA antibody)
Set-up: species or system human
Conditions: 1x10^6 H9 cells, one hour, no peptide is 1.83%
Description: One million HLA-DR4+H9 cells were incubated with the indicated concentrations of the HPV1-HA tagged peptide HPV7 (◯) or the HPV4-HA tagged peptide HPV17 (□). After analysis by flowcytometry, the percentage of gated cells was plotted against the peptide concentration. The gate was set such that about 98% cells untreated with peptide fell out of the gate.
In order to reveal possible mechanisms for the increased potency of the HPV4 hybrid peptide, the binding affinity of HPV1 compared to HPV4 in HLA-DR4+H9 lymphoma cells was determined. Two peptides (HPV7 and HPV17) linked to an HA tag, allowing the monitoring of binding using an anti-HA monoclonal antibody, were synthesized. Specifically, HPV7 [SEQ ID NO.: 12] consisted of HPV1 extended at the C-terminus with a two-glycine residue spacer and an HA tag (YPYDVPDYA [SEQ ID NO.: 15]), while HPV 17 [SEQ ID NO.: 13] represented HPV4 similarly extended at the C-terminus with a two-glycine residue spacer and an HA tag. Different concentrations of the two peptides were first incubated with 1×10^6 HLA-DR4+ human lymphoma cells (H9 cells) for one hour in culture medium. The binding efficiency was monitored by staining H9 cells with an anti-HA tag monoclonal antibody followed by a FITC-labeled secondary antibody.

Substance: LRMK-ava- eymldlqpettdl ggypydvpdya [HPV17, HPV4 extended at the C-terminus with a two-glycine residue spacer and an HA tag]
- percentage of positive gated cells (1 nmole peptide): 5.99%
- percentage of positive gated cells (10 nmole peptide): 12.56%
- percentage of positive gated cells (25 nmole peptide): 24.88%
- percentage of positive gated cells (50 nmole peptide): 41.32%
- percentage of positive gated cells (100 nmole peptide): 44.69%

Substance: lheymldlqpettdl ggypydvpdya (LHEYMLDLQPETTDLGGYPYDVPDYA; GG spacer and HA tag) [HPV7, HPV1 extended at the C-terminus with a two-glycine residue spacer and an HA tag]
- percentage of positive gated cells (1 nmole peptide): 3.88%
- percentage of positive gated cells (10 nmole peptide): 7.42%
- percentage of positive gated cells (25 nmole peptide): 12.2%
- percentage of positive gated cells (50 nmole peptide): 25.62%
- percentage of positive gated cells (100 nmole peptide): 39.49%
